Measured values taken from PubChem BioAssay (NCI).
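Exposure lasted 48 hours, with cells grown in 96-well plates and compounds tested at five concentrations. GI50 marks 50% less growth. TGI: concentration producing complete growth inhibition.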

Assays:
Test in all cases: growth of human tumour cells (NCI), 48 h
[1] = tested on: PC-3 prostate
[2] = tested on: UACC-257 melanoma
[3] = tested on: OVCAR-4 ovarian
[4] = tested on: HT29 colon
[5] = tested on: NCI-H23 lung
[6] = tested on: K-562 leukemia
[7] = tested on: LOX IMVI melanoma
[8] = tested on: SK-MEL-5 melanoma
[9] = tested on: T-47D breast
[10] = tested on: HOP-62 NSCLC
[11] = tested on: NCI/ADR-RES ovarian
[12] = tested on: MDA-MB-231 breast
[13] = tested on: U251 CNS
[14] = tested on: SR leukemia
[15] = tested on: NCI-H522 lung
[16] = tested on: SN12C renal
[17] = tested on: A498 renal
[18] = tested on: SK-OV-3 ovarian
[19] = tested on: RPMI-8226 leukemia
[20] = tested on: SW-620 colon
[21] = tested on: COLO 205 colon
[22] = tested on: CAKI-1 renal
[23] = tested on: SK-MEL-2 melanoma
[24] = tested on: IGROV1 ovarian
[25] = tested on: MCF7 breast
[26] = tested on: NCI-H460 lung
[27] = tested on: SK-MEL-28 melanoma
[28] = tested on: HCC-2998 colon
[29] = tested on: CCRF-CEM leukemia
[30] = tested on: MDA-N
[31] = tested on: A549 NSCLC
[32] = tested on: HL-60(TB) leukemia
[33] = tested on: HCT-15 colon
[34] = tested on: MOLT-4 leukemia
[35] = tested on: OVCAR-3 ovarian
[36] = tested on: MDA-MB-435
[37] = tested on: HCT-116 colon
[38] = tested on: M14 melanoma
[39] = tested on: NCI-H226 lung
[40] = tested on: SNB-19 CNS
[41] = tested on: ACHN renal
[42] = tested on: OVCAR-5 ovarian
[43] = tested on: DU-145 prostate
[44] = tested on: HOP-92 NSCLC
[45] = tested on: TK-10 renal
[46] = tested on: UO-31 renal
[47] = tested on: SF-295 CNS
[48] = tested on: OVCAR-8 ovarian
[49] = tested on: HS 578T breast

C[S+](N)(=O)CCC(N)P(=O)(O)O.O=[N+]([O-])c1cc([N+](=O)[O-])c([O-])c([N+](=O)[O-])c1
GI50 [1]: > 100 µM | TGI [1]: > 100 µM | GI50 [2]: > 100 µM | TGI [2]: > 100 µM | GI50 [3]: > 100 µM | TGI [3]: > 100 µM | GI50 [4]: > 100 µM | TGI [4]: > 100 µM | GI50 [5]: > 100 µM | TGI [5]: > 100 µM | GI50 [6]: > 100 µM | TGI [6]: > 100 µM | GI50 [7]: 39.8 µM | TGI [7]: > 100 µM | GI50 [8]: > 100 µM | TGI [8]: > 100 µM | GI50 [9]: > 100 µM | TGI [9]: > 100 µM | GI50 [10]: > 100 µM | TGI [10]: > 100 µM | GI50 [11]: > 100 µM | TGI [11]: > 100 µM | GI50 [12]: > 100 µM | TGI [12]: > 100 µM | GI50 [13]: > 100 µM | TGI [13]: > 100 µM | GI50 [14]: > 100 µM | TGI [14]: > 100 µM | GI50 [15]: 57.3 µM | TGI [15]: > 100 µM | GI50 [16]: > 100 µM | TGI [16]: > 100 µM | GI50 [17]: > 100 µM | TGI [17]: > 100 µM | GI50 [18]: > 100 µM | TGI [18]: > 100 µM | GI50 [19]: > 100 µM | TGI [19]: > 100 µM | GI50 [20]: > 100 µM | TGI [20]: > 100 µM | GI50 [21]: > 100 µM | TGI [21]: > 100 µM | GI50 [22]: > 100 µM | TGI [22]: > 100 µM | GI50 [23]: > 100 µM | TGI [23]: > 100 µM | GI50 [24]: > 100 µM | TGI [24]: > 100 µM | GI50 [25]: > 100 µM | TGI [25]: > 100 µM | GI50 [26]: > 100 µM | TGI [26]: > 100 µM | GI50 [27]: 73.5 µM | TGI [27]: > 100 µM | GI50 [28]: > 100 µM | TGI [28]: > 100 µM | GI50 [29]: > 100 µM | TGI [29]: > 100 µM | GI50 [30]: 24 µM | TGI [30]: 65.2 µM | GI50 [31]: > 100 µM | TGI [31]: > 100 µM | GI50 [32]: > 100 µM | TGI [32]: > 100 µM | GI50 [33]: > 100 µM | TGI [33]: > 100 µM | GI50 [34]: > 100 µM | TGI [34]: > 100 µM | GI50 [35]: > 100 µM | TGI [35]: > 100 µM | GI50 [36]: 41.5 µM | TGI [36]: > 100 µM | GI50 [37]: > 100 µM | TGI [37]: > 100 µM | GI50 [38]: 70.8 µM | TGI [38]: > 100 µM | GI50 [39]: > 100 µM | TGI [39]: > 100 µM | GI50 [40]: > 100 µM | TGI [40]: > 100 µM | GI50 [41]: > 100 µM | TGI [41]: > 100 µM | GI50 [42]: > 100 µM | TGI [42]: > 100 µM | GI50 [43]: > 100 µM | TGI [43]: > 100 µM | GI50 [44]: > 100 µM | TGI [44]: > 100 µM | GI50 [45]: > 100 µM | TGI [45]: > 100 µM | GI50 [46]: > 100 µM | TGI [46]: > 100 µM | GI50 [47]: > 100 µM | TGI [47]: > 100 µM | GI50 [48]: > 100 µM | TGI [48]: > 100 µM | GI50 [49]: > 100 µM | TGI [49]: > 100 µM
